# B1: monoclonal antibody ECL2B-2 (antibody, V domains shown)
# Chains of the proteins cited; added tags and fusions are not shown. Residues count along the entry.
# UniProt P69905, 2-142 limits assumed, chain 1 of 2: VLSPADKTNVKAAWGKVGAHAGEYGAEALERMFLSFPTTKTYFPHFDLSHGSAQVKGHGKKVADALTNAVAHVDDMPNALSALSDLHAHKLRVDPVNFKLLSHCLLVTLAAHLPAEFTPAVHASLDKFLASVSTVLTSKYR
# human hemoglobin, UniProt P68871, 2-147 limits assumed, chain 2 of 2: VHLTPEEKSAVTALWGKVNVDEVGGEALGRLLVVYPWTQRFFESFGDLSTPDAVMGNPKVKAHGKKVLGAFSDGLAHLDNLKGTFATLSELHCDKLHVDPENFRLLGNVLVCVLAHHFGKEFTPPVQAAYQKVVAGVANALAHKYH
# VH: DVKLVESGGGLVKPGGSLKLSCAASGFTFSRYTMSWVRQTPEKRLEWVATISSGGSYTYYPDSVKGRFTISRDIAKNTLYLQMSSLKSEDTALYYCTREGGYGAFASWGQGTLVTVS
# VL: DVLMTQTPLSLPVSLGDQASISCRSSQSIVHSNGNTYLEWYLQKPGQSPKLLIYKVSNRFSGVPDRFSGSGSGTDFTLKINRVAAEDLGVYYCFQGSHVPWTFGGGTKLEIKR
# notes: also called intact monoclonal antibody ECL2B-2
# B2: monoclonal antibody ECL2B-3 (antibody, V domains shown)
# VH: QIQLVQSGPELKKPGETVKISCKASGYTFTNYGMNWVKQAPGKGLEWMGWINTYTGEPTYAGDFMGRSVFSLETSASTAYLQINNLENKDTATYICARSGSPYAMDYWGQGTSVTVS
# VL: DIALTQSPASLAVSLGQRATISCKASQSVDYDGDSYMNWFQQKPGQPPKLLIYAASNLESGIPGRFSGSGSGTDFTLNIHPVEEEDIATYYCQQSYEDPFTFGSGTILDIKR
# Biological target: human hemoglobin (human, UniProt P69905 2-142; P68871 2-147)
# Assay: ELISA (immunoassay of Experiment 3-3), absorbance at 405 nm
row,Binder,binding result
1,B1,no binding
2,B2,no binding

# Reference: patent US20060030015A1 (published 2006)
